Compound activity (PubChem)
ARNT-TACC3 inh – disruptors of ARNT/TACC3 protein interaction, primary screen, biochemical, AlphaScreen, single concentration | Transforming acidic coiled-coil-containing protein 3 (Homo sapiens), Q9Y6A5 | AlphaScreen His-ARNT PAS-B/GST-TACC3 binding, luminescence; TACC3 fragment carries E629A point mutation | inhibition, % at 9.99 µM | 390,000 tested, 0.66% active;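 active = mean inhibition of replicates at least 50% and at least half of replicates each reaching 50%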;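 note: 0% = complete ARNT plus TACC3 wells and 100% = ARNT alone without TACC3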
CAL PDZ FP-1 – CAL PDZ peptide-binding inhibitors, primary screen, biochemical, fluorescence polarization, Cer-tagged CAL PDZ, HTS. inhibition, % at 20 µM. purified CAL PDZ, TMR-peptide fluorescence polarization, 1 h. 330,000 tested, 0.02% active. Golgi-associated PDZ and coiled-coil motif-containing protein (Homo sapiens), Q9HD26;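 active = highest replicate inhibition of at least 40%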;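 note: plate controls were DMSO neutral control wells for no effect and unlabeled competitor peptide control wells for full effect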
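System: purified tagged CAL PDZ domain construct (CerCALP). Schedule: 1 h incubation at room temperature before polarization reading. Medium: 25 mM sodium phosphate pH 7.4, 150 mM NaCl, TCEP, IgG, Thesit. Read-out: percent inhibition from loss of millipolarization. Measured by: FP readout, S and P plane fluorescence. Probe or stimulus: fluorescent TMR peptide probe.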
UUG fidelity – yeast start codon fidelity modulation. S. cerevisiae UUG-firefly luciferase reporter, luminescence/redox ratio. activity score, % at 18.7 µM. 0.13% of 350,000 active;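 active = replicate mean at a twofold rise or more, about +100% in these data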;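 also: firefly luciferase made from a UUG start codon reports start codon fidelity; reporter light over untreated wells divided by growth signal over untreated wells; some hits fall short of that in this replicate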
CAL PDZ FP-2 – untagged CAL PDZ binding inhibitors, primary screen, biochemical, fluorescence polarization, HTS | purified CAL PDZ, TMR-peptide fluorescence polarization, 1 h | AID 602252, 2012 | 300,000 tested, 0.92% active | inhibition, % at 24.9 µM | Golgi-associated PDZ and coiled-coil motif-containing protein (Homo sapiens), Q9HD26;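 active = mean inhibition of at least 30% with at least half of replicates also reaching 30%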;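 note: 0% = DMSO neutral control and 100% = excess unlabeled competitor peptide PRC23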
Vif inh – HIV Vif self-association inhibitors, primary screen, imaging, HEK293T, single point; HEK293T cells, Vif self-association by quenched fluorescence, 24 h; inhibition, % at 7.49 µM; 340,000 tested, 0.35% active; in the data active = inhibition above about 50%, passing the limit was not always enough
PglD DTNB – C. jejuni PglD acetyltransferase inhibitors, primary screen, biochemical, DTNB colorimetric, single point. UDP-N-acetylbacillosamine N-acetyltransferase PglD (Campylobacter jejuni). purified PglD enzyme, DTNB colorimetric CoA detection. inhibition, % at 12.5 µM. 360,000 tested, 0.098% active. AID 602405, 2012; in the data active = inhibition above about 16%, passing the limit was not always enough
An asterisk follows results filed as active; . = no result. Compounds with a hit are over-represented: about 1.6% of the library has one in this group of screens.

SMILES | ARNT-TACC3 inh | CAL PDZ FP-1 | UUG fidelity | CAL PDZ FP-2 | Vif inh | PglD DTNB
CC(C)NC(=O)Nc1cccc2c1O[C@@H](CN(C)S(=O)(=O)c1ccc(F)cc1)[C@@H](C)CN([C@@H](C)CO)C2=O | 0 | . | 4 | . | . | 1
COc1ccc(C(=O)CCC(C)(C)[N+](=O)[O-])cc1OC | -4 | 0 | . | 33* | 3 | .
COc1ccc(C(=O)CCS(=O)(=O)c2ccc(C)cc2)cc1OC | -2 | -1 | -11 | -3 | 21 | 0
C[C@H](CO)N1C[C@H](C)[C@H](CN(C)C(=O)c2ccccc2)Oc2cc(C#CC3(O)CCCC3)ccc2S1(=O)=O | -3 | . | 2 | . | . | -4
CCC(C)[C@H](NC(=O)N1CCC(C)CC1)C(=O)OC (stereo partly drawn) | -7 | 0 | . | 52* | -5 | .
C/C(=N\O)C1CC(CC(=O)O)C1(C)C (stereo not drawn) | -14 | 8 | -16 | 43* | -1 | 1
O=C(NCCCN1CCOCC1)c1ccc2c(c1)N(Cc1ccccc1)CCS2 | 6 | -1 | 0 | 58* | -1 | -1
CC(=O)Nc1ccc(-c2cc(NC(C)=O)n(-c3ccccc3)n2)cc1 | -1 | -2 | -12 | 75* | -1 | -6
COc1ccccc1Oc1coc2cc(OCC(N)=O)ccc2c1=O | -1 | -1 | -13 | -1 | 59* | -3
CCCNC(=O)COc1ccc2c(=O)c(Oc3ccccc3F)coc2c1 | -11 | -1 | . | 4 | -17 | .
C[C@H]1CN([C@@H](C)CO)C(=O)c2cc(/C=C/c3ccccc3)cnc2O[C@@H]1CN(C)C(=O)Nc1ccc(C(F)(F)F)cc1 | 17 | . | 4 | . | . | 3
CCOc1ccc(S(=O)(=O)NC(C)C(=O)NCc2ccc3c(c2)OCO3)cc1 (stereo not drawn) | 1 | 0 | 16 | 76* | 1 | -2
CC(NS(=O)(=O)c1ccc(Br)cc1)C(=O)NCc1ccc2c(c1)OCO2 (stereo not drawn) | -7 | 0 | . | 0 | 1 | .
CCN(C(=O)CN1C(=O)/C(=C/c2ccccc2F)SC1=S)C1CCS(=O)(=O)C1 (stereo not drawn) | -3 | 0 | -1 | 75* | 16 | -5
CCN(CC)C(=O)CN1C(=O)/C(=C/c2ccccc2)SC1=S | -3 | 1 | -12 | 44* | 0 | -6
CCN(C(=O)CN1C(=O)S/C(=C\c2ccccc2OC)C1=O)C1CCS(=O)(=O)C1 (stereo not drawn) | -2 | -4 | -6 | -2 | -5 | -3
CC(=O)NNC(=O)CN1C(=O)/C(=C/c2ccccc2)SC1=S | -3 | -2 | . | 1 | -7 | .
O=C(COc1cc(Cl)ccc1Cl)Nc1nnc(C2CC2)s1 | 2 | -1 | -10 | 37* | -24 | 3
COc1ccc(CCNC(=O)CCSCc2ccccc2F)cc1OC | -20 | . | -9 | 41* | 2 | -2
CNC[C@H]1Oc2cc(C#CCOC)ccc2S(=O)(=O)N([C@@H](C)CO)C[C@@H]1C | -16 | . | 4 | . | . | 1
N#CCCN(Cc1cccnc1)C(=S)NC(=O)c1ccccc1 | -2 | -1 | -12 | 89* | 18 | -5
C/C=C/c1cnc2c(c1)C(=O)N([C@@H](C)CO)C[C@H](C)[C@H](CN(C)C(=O)C1CC1)O2 | . | . | -13 | . | . | .
Cc1nnc2sc(SCC(=O)Nc3ccc(Cl)cc3)nn2c1=O | 43* | 15 | 1 | 37* | 8 | 1
CC(=O)Nc1cccc(NC(=O)CSc2nn3c(=O)c(C)nnc3s2)c1 | 67* | -1 | 0 | . | -9 | 1
COc1ccc(Cc2nnc3sc(SCC(=O)Nc4ccccc4)nn3c2=O)cc1OC | 63* | -2 | -9 | -1 | -3 | 4

More compounds follow:
SMILES | ARNT-TACC3 inh | CAL PDZ FP-1 | UUG fidelity | CAL PDZ FP-2 | Vif inh | PglD DTNB
Cc1nnc2sc(SCc3ccc(Cl)cc3)nn2c1=O | 0 | -1 | -5 | -2 | 3 | -5
CO[C@H]1CN(C)C(=O)c2cc(NC(=O)C3CC3)ccc2OC[C@@H](C)N(Cc2ccccc2)C[C@@H]1C | -14 | . | -13 | . | . | 6
CCN1CCN(C(c2ccccc2)c2nnnn2Cc2ccccc2)CC1 (stereo not drawn) | -3 | -2 | 0 | -8 | 9 | 3
CCN1CCN(C(c2cc(OC)ccc2OC)c2nnnn2Cc2ccccc2)CC1 (stereo not drawn) | -5 | -1 | -5 | 54* | -5 | -8
C[C@@H]1CCCCO[C@@H](CN(C)CC2CCCCC2)[C@@H](C)CN([C@H](C)CO)C(=O)c2cc(NS(=O)(=O)c3cn(C)cn3)ccc2O1 | -3 | . | 1 | . | . | -2
CC(=O)C1CCCN(C(=O)c2ccc3oc(CCc4ccccc4)nc3c2)C1 (stereo not drawn) | -1 | 0 | -12 | 47* | 5 | -6
CC(C)NC(=O)N(C)C[C@H]1Oc2ncc(-c3cncnc3)cc2C(=O)N([C@H](C)CO)C[C@H]1C | 2 | . | -5 | . | . | -4
O=C1CCCC(=O)C1=Cc1c[nH]c2ccccc12 | -4 | -1 | -8 | 70* | -2 | 7
CC(=O)c1cccc(NC(=O)Cn2cnc(S(=O)(=O)N3CCCCC3)c2)c1 | -5 | -1 | -6 | -8 | -1 | -1
O=C(Cn1cnc(S(=O)(=O)N2CCCC2)c1)Nc1cccc(Br)c1 | 1 | -1 | -14 | 50* | 14 | 4
O=C(Nc1ccc2c(c1)OCCO2)c1ccccn1 | 0 | -1 | -70 | 2 | 23 | -3
O=C(CSc1ncccn1)Nc1ccc2c(c1)OCO2 | -8 | -1 | -13 | . | 14 | -5
O=C(COC(=O)c1ccccn1)Nc1ccc2c(c1)OCCO2 | 14 | -1 | -35 | 56* | 5 | 5
O=C(CSc1ncccn1)NC(=O)Nc1ccc2c(c1)OCCO2 | -7 | -2 | -24 | . | 60* | -1
O=C(CSc1ccc(-c2nc3ccccc3[nH]2)cn1)Nc1ccc2c(c1)OCCO2 | -31 | -3 | -9 | -2 | 55* | -3
Nn1c(SCC(=O)Nc2ccc3c(c2)OCCO3)nnc1-c1ccccn1 | 70* | 0 | . | -3 | 16 | .
Cc1ccc2nc(-c3ccc(SCC(=O)Nc4ccc5c(c4)OCCO5)nc3)[nH]c2c1 | -3 | -2 | . | -3 | -1 | .
O=C(C[C@H]1CC[C@H](NC(=O)Nc2ccc(C(F)(F)F)cc2)[C@@H](CO)O1)NCc1ccccn1 | -6 | . | -18 | . | . | -1

Grouped by structure: those above with fluorine.
SMILES | ARNT-TACC3 inh | CAL PDZ FP-1 | UUG fidelity | CAL PDZ FP-2 | Vif inh | PglD DTNB
CC(C)NC(=O)Nc1cccc2c1O[C@@H](CN(C)S(=O)(=O)c1ccc(F)cc1)[C@@H](C)CN([C@@H](C)CO)C2=O | 0 | . | 4 | . | . | 1
CCCNC(=O)COc1ccc2c(=O)c(Oc3ccccc3F)coc2c1 | -11 | -1 | . | 4 | -17 | .
C[C@H]1CN([C@@H](C)CO)C(=O)c2cc(/C=C/c3ccccc3)cnc2O[C@@H]1CN(C)C(=O)Nc1ccc(C(F)(F)F)cc1 | 17 | . | 4 | . | . | 3
CCN(C(=O)CN1C(=O)/C(=C/c2ccccc2F)SC1=S)C1CCS(=O)(=O)C1 (stereo not drawn) | -3 | 0 | -1 | 75* | 16 | -5
COc1ccc(CCNC(=O)CCSCc2ccccc2F)cc1OC | -20 | . | -9 | 41* | 2 | -2
O=C(C[C@H]1CC[C@H](NC(=O)Nc2ccc(C(F)(F)F)cc2)[C@@H](CO)O1)NCc1ccccn1 | -6 | . | -18 | . | . | -1
